Values of other authors, collected in US20250235394A1, “BIOFILM-TARGETING NANOPARTICLES TO INCREASE THE […] OF FLUORIDE” (The Regents of The University of Michigan, priority 2021, published 2025).

In the case of stannous fluoride, the “solubility in water (dissolves up to a concentration of)” value is listed as 42,000 ppm F.
